Key:
DNA = conditions: known mutagenic properties; cited from earlier work
[1] = tested on: single-stranded .phi.105 DNA; assay: marker rescue mutagenesis assay, single-stranded DNA; conditions: 100 mM MNNG, 42° C., 0-10 minutes

Compound: CN(N=O)C(=N)N[N+](=O)[O-]
- lesion in DNA / reactivity with DNA (DNA): mutagenic potency has been related to its capacity to alkylate oxygens in nucleic acids
- marker rescue activity [1]: no significant decrease in marker rescue activity
- significance (p) of increase in frequency of clear PFU ([1]; FIG. 3): < 0.001
- induction of mutations ([1]; DMF buffer pH 6.1, FIG. 3): Mutations were induced
